Consider 2 compounds from ChEMBL document CHEMBL3098022, “Multifunctional cholinesterase and amyloid Beta fibrillization modulators. Synthesis and biological investigation” (ACS Med Chem Lett, 2013).

The species named for this assay is Homo sapiens. As to the kind of experiment: Selectivity ratio of Ki for human acetylcholine esterase to Ki for human butyrylcholine esterase.

As for `c1ccc2c(NCCCCCCCCSc3c4c(nc5ccccc35)CCCC4)c3c(nc2c1)CCCC3`, the Ratio Ki worked out at 16.9. Take `CN(CCCCNc1c2c(nc3ccccc13)CCCC2)CCCNc1c2c(nc3ccccc13)CCCC2`: the Ratio Ki is 0.01.
